Sequences of proteins named here, by UniProt entry; tags and fusion partners are left off.
UniProt P30536, whole entry: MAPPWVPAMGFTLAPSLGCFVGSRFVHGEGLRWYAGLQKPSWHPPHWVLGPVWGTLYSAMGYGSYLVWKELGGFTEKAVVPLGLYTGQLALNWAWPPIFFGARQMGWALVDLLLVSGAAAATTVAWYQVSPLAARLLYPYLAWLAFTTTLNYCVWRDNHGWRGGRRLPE

According to ChEMBL document CHEMBL4138055, “Determination and reduction of translocator protein (TSPO) ligand rs6971 discrimination” (Medchemcomm, 2017):

Biological target: Translocator protein (Homo sapiens, UniProt P30536)
Assay: Displacement of [3H]PK11195 from human wild type TSPO expressed in HEK293T cell membranes after 90 mins by scintillation counting method

SMILES: CCC(C)N(C)C(=O)c1cc2ccccc2c(-c2ccccc2Cl)n1 (stereo unspecified) [PK-11195]
- Ki: 29.2 nM
